Consider one substance from patent publication US8173689B2 (Novartis AG, priority 2006, dated 2012).

The chains behind the UniProt entries cited, without tags or fusion partners. Where a name states a change or a piece, a line headed by the entry shows the natural chain unless it says otherwise. Residues count along the entry.
UniProt P10721, 589-937 limits assumed: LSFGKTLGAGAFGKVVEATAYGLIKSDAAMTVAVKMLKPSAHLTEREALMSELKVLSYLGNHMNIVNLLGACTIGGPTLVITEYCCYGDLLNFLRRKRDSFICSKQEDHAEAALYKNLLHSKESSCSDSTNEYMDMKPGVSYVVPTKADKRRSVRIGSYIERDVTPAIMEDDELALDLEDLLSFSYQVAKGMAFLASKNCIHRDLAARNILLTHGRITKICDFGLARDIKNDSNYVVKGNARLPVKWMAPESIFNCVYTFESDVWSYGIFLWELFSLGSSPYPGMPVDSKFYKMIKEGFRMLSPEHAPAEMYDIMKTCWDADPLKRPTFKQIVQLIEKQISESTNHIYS
UniProt P09619: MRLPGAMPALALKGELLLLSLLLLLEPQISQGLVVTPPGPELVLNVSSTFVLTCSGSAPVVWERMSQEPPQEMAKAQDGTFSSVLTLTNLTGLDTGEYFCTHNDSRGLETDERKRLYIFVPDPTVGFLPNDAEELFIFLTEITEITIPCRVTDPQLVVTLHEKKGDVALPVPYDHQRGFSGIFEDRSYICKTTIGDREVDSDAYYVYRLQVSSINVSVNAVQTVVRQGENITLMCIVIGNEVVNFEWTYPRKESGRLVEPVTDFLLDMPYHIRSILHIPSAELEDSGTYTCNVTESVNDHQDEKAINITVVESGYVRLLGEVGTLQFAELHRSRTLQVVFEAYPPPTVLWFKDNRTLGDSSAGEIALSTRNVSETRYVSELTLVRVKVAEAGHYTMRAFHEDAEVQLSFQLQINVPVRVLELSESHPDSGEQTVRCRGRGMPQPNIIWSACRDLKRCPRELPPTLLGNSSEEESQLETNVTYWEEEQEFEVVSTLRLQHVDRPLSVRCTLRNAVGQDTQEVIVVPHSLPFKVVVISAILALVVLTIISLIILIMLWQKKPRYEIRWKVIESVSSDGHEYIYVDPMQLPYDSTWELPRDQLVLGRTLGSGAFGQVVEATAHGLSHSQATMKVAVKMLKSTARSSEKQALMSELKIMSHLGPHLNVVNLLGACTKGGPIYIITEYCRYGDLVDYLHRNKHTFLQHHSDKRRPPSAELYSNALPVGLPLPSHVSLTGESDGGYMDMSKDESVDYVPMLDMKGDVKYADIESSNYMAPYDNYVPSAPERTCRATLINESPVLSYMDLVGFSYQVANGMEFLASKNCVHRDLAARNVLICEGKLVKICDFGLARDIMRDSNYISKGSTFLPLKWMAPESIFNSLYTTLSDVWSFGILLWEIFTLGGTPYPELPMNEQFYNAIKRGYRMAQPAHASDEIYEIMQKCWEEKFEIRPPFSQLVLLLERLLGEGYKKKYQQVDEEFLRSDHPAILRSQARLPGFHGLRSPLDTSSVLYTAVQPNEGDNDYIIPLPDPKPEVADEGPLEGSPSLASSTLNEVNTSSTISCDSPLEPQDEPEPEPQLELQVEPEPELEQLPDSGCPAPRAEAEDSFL

Conditions in all cases: tested at about 1 μM; compounds of Table 3
Experiment [1] concerns the target T1, cytoplasmic domain of the human CSF-1R (Homo sapiens, UniProt P07333).
T1 construct: Recombinant protein corresponding to the cytoplasmic domain of the human CSF-1R; purchased Invitrogen Corporation, Carlsbad, Calif; PV3249
T1 sequence (P07333 539-972 limits assumed): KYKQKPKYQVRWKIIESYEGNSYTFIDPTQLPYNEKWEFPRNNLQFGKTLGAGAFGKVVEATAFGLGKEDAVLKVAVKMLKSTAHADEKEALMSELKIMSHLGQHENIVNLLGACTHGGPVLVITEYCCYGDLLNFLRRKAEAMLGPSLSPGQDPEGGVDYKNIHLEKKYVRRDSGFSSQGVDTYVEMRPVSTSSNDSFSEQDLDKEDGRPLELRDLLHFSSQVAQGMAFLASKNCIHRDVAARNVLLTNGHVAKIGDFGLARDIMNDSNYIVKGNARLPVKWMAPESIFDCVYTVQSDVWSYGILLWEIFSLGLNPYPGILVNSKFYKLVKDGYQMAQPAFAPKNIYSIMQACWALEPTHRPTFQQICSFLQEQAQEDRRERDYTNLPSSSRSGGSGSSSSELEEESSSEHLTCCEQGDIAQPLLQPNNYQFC
Nature of the experiment: In vitro kinase assay for colony stimulating factor-1 receptor (AlphaScreen). Format: biochemical. The method, then:
The kinase activity of various protein tyrosine kinases can be measured by providing ATP and a suitable peptide or protein tyrosine-containing substrate, and assaying the transfer of phosphate moiety to the tyrosine residue. Recombinant protein corresponding to the cytoplasmic domain of the human CSF-1R was purchased from Invitrogen Corporation, Carlsbad, Calif. U.S.A. (#PV3249). For each assay, test compounds were serially diluted, starting at 25 μM with 3 fold dilutions, in DMSO in 384 well plates then mixed with an appropriate kinase reaction buffer consisting of 50 mM Hepes, 5 mM MgCl2, 10 mM MnCl2, 0.1% BSA, pH 7.5, 1.0 mM dithiothreitol, 0.01% Tween 80 plus 1 μM ATP. […] Added to the stopped reaction mix was 30 μL of PT66 Alphascreen beads (Perkin Elmer, Boston, Mass., U.S.A.). The reaction was incubated overnight and read on the Envision (Perkin Elmer). Phosphorylated peptide product was measured with the AlphaScreen system (Perkin Elmer) using acceptor beads coated with anti-phosphotyrosine antibody PT66 and donor beads coated with streptavidin that emit a fluorescent signal at the 520-620 nm emission wave length if in close proximity.
CSF-1R kinase was added at final concentration of 4 nM.
For orientation: Alpha assays give light when donor and acceptor beads are brought close together.

Experiment [2] has as its target T2, full-length human CSF-1R receptor (Homo sapiens, UniProt P07333).
T2 construct: transfected with the full-length human CSF-1R receptor cloned in house; expressed in transfected cells; host or cells: HEK293H (Invitrogen Cat. #11631017)
As to the kind of experiment: In vitro inhibition of CSF-1R receptor tyrosine phosphorylation in transfected HEK293H cells stimulated with MCSF. Format: cell-based. The method, then: The lysate was then transferred to total CSF-1R antibody coated 96-well plates that had already been blocked with 3% Blocker A from Mesoscale discovery (MSD) for 2 hours and washed afterwards. Lysates were incubated overnight at 4° C. and the plates were then washed 4× with MSD Tris Wash Buffer. […] The plates were read on the Sector 6000 instrument (MSD). Raw data was imported in Abase and EC50s calculated with XL-fit data analysis software.

A further experiment concerns the target T3, kinase domain of cKIT (Homo sapiens, UniProt P10721).
T3 construct: The kinase domain of cKIT was assayed in 50 mM Hepes; purchased Upstate 14-559
Nature of the experiment: Inhibition of cKIT kinase signaling in an in vitro biochemical assay (alphascreen). As for the experimental part:
(§1) The IC50 values for the inhibition of RTKs were determined in the alphascreen format measuring the inhibition by compound of phosphate transfer to a substrate by the respective enzyme. Briefly, the respective RTK domain purchased as human recombinant protein (cKIT Upstate #14-559, PDGFRb Invitrogen #P3082) were incubated with serial dilutions of compound in the presence of substrate and ATP concentrations within 3 times the Km of the enzyme.
(§2) Alphascreen PY20 beads were added to the stopped cKIT reactions and PY20 Ab/Protein A Alphascreen beads were added to the PDGFRβ stopped reactions. Both reactions were incubated overnight and read on the Alphascreen reader.

Another experiment concerns the target T4, kinase domain of PDGFRβ (Homo sapiens, UniProt P09619).
T4 construct: The kinase domain of PDGFRβ was assayed in 50 mM Hepes; purchased Invitrogen P3082
As to the kind of experiment: Inhibition of PDGFRb kinase signaling in an in vitro biochemical assay (alphascreen). As for the experimental part:
as §1, §2

The test system of experiment [3] is MNFS60 (murine AML cells). As to the kind of experiment: Cell viability assay in MCSF dependent MNFS60 cells (Cell Titer Glo). It is filed as cell-based. The method, then: Cell viability was assessed by Cell Titer Glo, Promega. […] Test compounds were serially diluted (3 fold) in DMSO to 500× the final concentration. […] Final concentration of MCSF is 10 ng/ml. Cells were incubated for 72 hrs at 37° C., 5% CO2. After the incubation 100 μl Cell Titer Glo is added to each well to determine viable cells. The assay was performed according to the manufacturer's instruction (Promega Corporation, Madison, Wis. USA). Each experimental condition was performed in triplicate. Raw data was imported in Abase and EC50s calculated with XL-fit data analysis software.
(ATP-based viability assays read luminescence as a measure of living cells.)

For “4-[2-(2,5-Difluoro- benzylamino)-benzooxazol- 6-yloxy]-pyridine-2- carboxylic acid methylamide [Compound 33]”, the CSF-1R percent inhibition in experiment [1] came to 100%. This substance displayed a pCSF1R percent inhibition in experiment [2] of 66%. For the same substance, at kinase domain of cKIT, the cKit percent inhibition is reported as 18%. On kinase domain of PDGFRβ, this substance showed a PDGFRβ percent inhibition of 2%. In experiment [3], the “M-NFS-60 CP percent inhibition” value amounted to 54%.
